{
  "sequences": {"note": "Chains of the proteins cited; added tags and fusions are not shown.", "UniProt P0DMS8, whole entry": "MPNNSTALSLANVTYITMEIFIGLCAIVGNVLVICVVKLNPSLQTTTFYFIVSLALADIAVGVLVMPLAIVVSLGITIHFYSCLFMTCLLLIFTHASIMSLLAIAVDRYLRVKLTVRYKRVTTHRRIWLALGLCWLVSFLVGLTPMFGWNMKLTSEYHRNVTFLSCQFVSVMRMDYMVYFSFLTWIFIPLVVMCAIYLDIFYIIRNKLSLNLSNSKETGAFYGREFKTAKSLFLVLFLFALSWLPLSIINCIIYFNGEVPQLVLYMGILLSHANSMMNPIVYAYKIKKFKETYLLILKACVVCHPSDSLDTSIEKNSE"},
  "source": "paper PMC5830979",
  "about": "“Preclinical In Vitro and In Vivo Evaluation of [^18F]FE@SUPPY for Cancer PET Imaging: Limitations of a Xenograft Model for Colorectal Cancer” (Contrast Media & Molecular Imaging, 2018)",
  "origin": "cited, not measured here",
  "biological_target": "hA3AR (Homo sapiens, UniProt P0DMS8)",
  "design": "purchased PerkinElmer, Inc. Waltham, USA; method as in PerkinElmer (manufacturer)",
  "conditions": "radioligand of the assay; ref PerkinElmer (manufacturer); cited from earlier work",
  "data": [
    {"smiles": "CNC(=O)[C@H]1O[C@@H](n2cnc3c(NCc4ccc(N)c(I)c4)ncnc32)[C@H](O)[C@@H]1O", "note": "[[^125I]AB-MECA]", "values": [
      {"measurement": "Kd", "value": 0.78, "unit": "nM"}
    ]}
  ]
}
